Earlier results as cited in patent US6849254B1, “HCV combination therapy” (Schering Corporation, priority 1999, dated 2005).

Settings: healthy volunteers; single oral dose of 400 IU, 800 IU and 1200 IU (Dimitrov et al.)

d-alpha-tocopheryl polyethylene glycol 1000 succinate [Vitamin E-TPGS]
Plasma alpha tocopherol concentrations: slight elevation of plasma alpha tocopherol concentrations
